ClpP mod: qHTS Assay for Activators of ClpP. AID 651965, 2013. ATP-dependent Clp protease proteolytic subunit (Bacillus subtilis (strain 168)), P80244. purified B. subtilis ClpP, FRET peptide cleavage, 20 min. Potency, µM (titrated, usually from 57.5 µM), for the others: at the top dose activity change, negative = active. 340,000 tested, 1.9% active; active = well fitted falling curve with a large enough effect; inconclusive = small, poorly fitted or top-dose-only effect; inactive = no such curve, though single readings can be large or run the other way; also: potency is read from the fitted curve at half-maximal effect; the source files actives as falling curves though it sought activators and does not explain the sign; nearly all actives have a fitted effect of over 65% in size
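FRET quenching reversal measured ClpP activation: 10 microg/mL B. subtilis ClpP at pH 8 with the FRET-FV decapeptide, read at 430 nm after 320 nm excitation. The 20-min minus 0-min signal was scaled between DMSO/no-enzyme wells and ADEP (5.8 microM final).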
miR-21 reporter: raises the signal of a miR-21 reporter; AID 2288; 340,000 tested, under 10 active; Potency, µM (doses to about 38.3 µM), inactives show at the top dose reporter change, positive = more light; HeLa miR-21 FLuc reporter, luciferase, 48 h; active = well fitted rising curve with a large enough effect; inconclusive = small, poorly fitted or top-dose-only effect; inactive = no such curve, though single readings can be large or run the other way;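 note: % of control where 0% means no effect; miR-21 action dims this reporter so a rising signal means less miR-21 action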
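HeLa cells stably expressing CMV-driven firefly luciferase with a downstream miR-21 binding sequence, endogenously expressing miR-21, were treated with titrations (up to about 40uM final) for 48 hours at 37 degree Celsius. Luciferase luminescence was read after lysis.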
Nrf2 ARE act: Nrf2 pathway activation | Potency, µM (titrated, usually from 46.1 µM), for the others: top-dose activation, usual class: activators | AID 624171 | AREc32 ARE-luciferase reporter (MCF7-derived line), luminescence, 24 h | 410,000 tested, 0.31% active; also: potency is read from the fitted curve at half-maximal effect; % of control where 0% means no effect; nearly all actives have a fitted effect of over 65% in size
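Luciferase luminescence (Steady-Glo, 30 min at room temperature) served as the read-out of ARE activation in AREc32 cells treated with compounds for 24 hr at 37 deg C.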
A549 viability: counter-screen for Nrf2 inhibitors: cytotoxicity in A549 cells; A549 ARE-Fluc cells, CellTiter-Fluor viability, 18-24 h; Potency, µM (top dose mostly 46 µM), inactives show top-dose activity change, negative = cytotoxicity, actives largely listed as inhibitors; 390,000 tested, 0.16% active; AID 504648; also: potency is read from the fitted curve at half-maximal effect; % is scaled to controls: 0 for no effect and ±100 for the full control effect
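Cytotoxicity counterscreen: CellTiter-Fluor fluorescence was measured in A549 ARE_Fluc cells after 18-24 h of compound exposure in a concentration series. The subsequent BugLite luminescent read reports ARE-luciferase activity.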
Nrf2 block: Nrf2 pathway inhibition; AID 504444; A549 ARE-Fluc reporter, luciferase luminescence, 18-24 h; Potency, µM (series often up to 46 µM), for the others: top-dose activity change, negative = inhibition, usual class: inhibitors; 360,000 tested, 2.1% active; also: potency is read from the fitted curve at half-maximal effect; % is scaled to controls: 0 for no effect and ±100 for the full control effect; nearly all actives have a fitted effect of over 60% in size
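Concentration-response testing used A549 ARE_Fluc cells at 5000 cells/well. Following an 18-24 h compound incubation, viability was read by fluorescence (Ex 405/Em 525) and luciferase output by luminescence.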
p53 reactivation: re-activators of mutant p53. H1299 p53-A138V BP100-luciferase reporter, luminescence, 24 h. Potency, µM (doses to about 92.2 µM), without a hit: top-dose activity change, positive = activation, most hits filed as activators. 320,000 tested, 0.063% active; also: potency is read from the fitted curve at half-maximal effect; % of control where 0% means no effect; nearly all actives have a fitted effect of over 45% in size
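p53-null H1299 cells stably carrying temperature-sensitive p53-A138V and a BP100-luciferase reporter were pinned with compounds (4-point, 1:5 series) and held 24 hrs at 37 deg C. Luminescence was read 10 min after detection reagent.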
Starred values were filed as active, the others as inactive; ? = inconclusive; nt = no result given. The list is not random: actives were taken first. Their share in the collection is about 3.7%. Unless noted, calls follow the shape of the dose curve; as a rule, active = well fitted curve in the direction sought with a large enough effect; inconclusive = small, poorly fitted or top-dose-only effect, or another doubt; inactive = no such curve, though single readings can be large; an effect the other way counts as inactive or inconclusive.

By UniProt entry, the sequences of proteins in these tests, tags left out.
ATP-dependent Clp protease proteolytic subunit (Bacillus subtilis (strain 168)), P80244, UniProt P80244, whole entry, looked up: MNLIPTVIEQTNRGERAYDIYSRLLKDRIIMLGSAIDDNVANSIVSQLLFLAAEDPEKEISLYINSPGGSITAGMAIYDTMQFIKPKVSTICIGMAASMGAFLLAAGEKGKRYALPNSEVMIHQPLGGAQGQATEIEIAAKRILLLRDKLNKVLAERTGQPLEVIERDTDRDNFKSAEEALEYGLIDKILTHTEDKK

Letters – A = ClpP mod; B = miR-21 reporter; C = Nrf2 ARE act; D = A549 viability; E = Nrf2 block; F = p53 reactivation
> CCOc1ccccc1NC(=O)C(Cc1ccccc1)NS(=O)(=O)c1ccc(Br)s1 (stereo not given)
  A: -4%; B: ?; C: 0%; D: -10%; E: 18µM*; F: nt
> O=C(/C=C/[C@H]1O[C@@H](n2ccc(=O)[nH]c2=O)[C@H](O)[C@@H]1O)N1CCN(Cc2ccc(F)cc2)CC1
  A: 1%; B: nt; C: -1%; D: nt; E: nt; F: nt
> O=C(NC1(C(F)(F)F)C(=O)Nc2c1c(=O)[nH]c(=O)n2-c1ccc(F)cc1)c1ccccc1 (stereo not given)
  A: -1%; B: 0%; C: 0%; D: -3%; E: 9%; F: nt
> Clc1ccc(CSc2nnc(Cn3cnc4ccccc43)o2)cc1
  A: 1%; B: 19%; C: -1%; D: -14%; E: 8.2µM*; F: -13%
> NC(=O)CSc1nnc(Cn2cnc3ccccc32)o1
  A: -1%; B: 3%; C: 0%; D: 8%; E: -14%; F: 7%
> CCOc1ccc(-c2nn(CC(=O)NC3CCCC3)c3c2cnc2ccc(F)cc23)cc1
  A: -11%; B: -36%; C: 6%; D: 2%; E: ?; F: nt
> COC(=O)c1scc(C)c1NC(=O)Nc1ccccc1
  A: 17%; B: -8%; C: 5%; D: -7%; E: nt; F: -1%
> COC(=O)c1scc(C)c1NC(=O)c1cccc(C#N)c1
  A: 0%; B: -5%; C: 5%; D: 11%; E: 12%; F: ?
> COC(=O)c1scc(C)c1NC(=O)c1ccccc1F
  A: 1%; B: -13%; C: 13µM*; D: 2%; E: ?; F: -1%
> COC(=O)c1scc(C)c1NC(=O)C(Cl)c1ccccc1 (stereo not given)
  A: -1%; B: 5%; C: 13µM*; D: 2%; E: 4%; F: -1%

Ordered by value in p53 reactivation (highest first): 3 of the compounds above.
| compound | ClpP mod | miR-21 reporter | Nrf2 ARE act | p53 reactivation |
| --- | --- | --- | --- | --- |
| NC(=O)CSc1nnc(Cn2cnc3ccccc32)o1 | -1% | 3% | 0% | 7% |
| COC(=O)c1scc(C)c1NC(=O)c1ccccc1F | 1% | -13% | 13µM* | -1% |
| Clc1ccc(CSc2nnc(Cn3cnc4ccccc43)o2)cc1 | 1% | 19% | -1% | -13% |

Remaining list, next part
Letters – A = ClpP mod; B = miR-21 reporter; C = Nrf2 ARE act; D = A549 viability; E = Nrf2 block; F = p53 reactivation
> CCc1cc(C=C(Cl)Cl)oc(=O)c1C
  A: 1%; B: 0%; C: 14µM*; D: -20%; E: -14%; F: 6%
> COc1ccccc1CNC(=S)NC1CCCCC1
  A: nt; B: 5%; C: 3%; D: ?; E: 15µM*; F: 5%
> c1coc(-c2cnc3ccccc3n2)c1
  A: 4%; B: nt; C: 4µM*; D: nt; E: nt; F: nt
> c1coc(-c2nc3ccccc3nc2-c2ccco2)c1
  A: -18%; B: -4%; C: 10µM*; D: -4%; E: -30%; F: 15%
> c1csc(-c2cnc3ccccc3n2)c1
  A: 6.3µM*; B: -42%; C: ?; D: 0%; E: ?; F: ?
> CCn1ccc2cc(S(=O)(=O)N3CCCN(C(=O)Nc4ccc(C)cc4)CC3)ccc21
  A: -5%; B: 2%; C: 0%; D: 9%; E: nt; F: nt
> Cc1ccc(-c2onc(C)c2C)cc1S(=O)(=O)NCc1ccc(N(C)C)cc1
  A: 1%; B: 12%; C: 0%; D: -18%; E: ?; F: nt
> CCCOC(=O)CSc1nc(N)c(C#N)c(-c2ccco2)c1C#N
  A: 25µM*; B: nt; C: 13%; D: 1%; E: 6%; F: nt
> N#Cc1c(N)nc(SCc2ccccc2)c(C#N)c1-c1ccco1
  A: ?; B: -37%; C: 3%; D: ?; E: 12µM*; F: -21%
> N#Cc1c(N)nc(SCC(=O)OCc2ccccc2)c(C#N)c1-c1ccco1
  A: -30%; B: -3%; C: 8%; D: 10%; E: -10%; F: -4%
> O=C(Nc1ccc(Cl)cc1)OCc1cc(-c2ccccc2Cl)on1
  A: -2%; B: -3%; C: -1%; D: -2%; E: ?; F: -4%
> Clc1ccc(Cl)c(OCc2cc(-c3ccccc3Cl)on2)c1
  A: 14µM*; B: -6%; C: 0%; D: -7%; E: 24%; F: 7%
> CCOc1ccccc1CN1[C@@H](c2ccc(OC)cc2)CC(C(=O)OC)(C(=O)OC)[C@H]1c1ccccc1
  A: -7%; B: nt; C: nt; D: nt; E: nt; F: nt
> O=C1CCC[C@@H]2CC(N(Cc3cc4ccccc4s3)c3ccccc3)C[C@@H]3CCN1[C@H]23 (stereo not given in full)
  A: 0%; B: nt; C: nt; D: nt; E: nt; F: nt
> CCN(CC)CCNC(=O)c1c2c(nc3ccccc13)C(=O)N(C1CCCCC1)C2
  A: 28µM*; B: 0%; C: 1%; D: 22%; E: ?; F: nt
> COc1cc(OC)c(NC(=O)c2c3c(nc4ccccc24)C(=O)N(C2CCCCC2)C3)cc1Cl
  A: 1%; B: -1%; C: -1%; D: -8%; E: 13µM*; F: nt
> Cc1ccccc1NC(=O)c1c2c(nc3ccccc13)C(=O)N(C1CCCCC1)C2
  A: -4%; B: 1%; C: 6%; D: -3%; E: 27%; F: nt
> O=C(NCc1ccccc1)c1c2c(nc3ccccc13)C(=O)N(C1CCCCC1)C2
  A: -28%; B: 12%; C: 0%; D: -7%; E: 0%; F: nt
> Cc1ccc(-c2cc3nc4c(c(=O)n3[nH]2)CCCC4)cc1
  A: ?; B: nt; C: 4%; D: -5%; E: 7%; F: nt
> O=c1c2c(nc3cc(-c4ccc(F)cc4)[nH]n13)CCC2
  A: 6.3µM*; B: -75%; C: 1%; D: 3%; E: 26%; F: ?

Quoted from the listing:
p53 reactivation with `Clc1ccc(Cl)c(OCc2cc(-c3ccccc3Cl)on2)c1` → 7%
Nrf2 block with `COc1cc(OC)c(NC(=O)c2c3c(nc4ccccc24)C(=O)N(C2CCCCC2)C3)cc1Cl` → 13µM*

Remaining list, next part.
Letters – A = ClpP mod; B = miR-21 reporter; C = Nrf2 ARE act; D = A549 viability; E = Nrf2 block; F = p53 reactivation
> COc1cc(/C=N/NC(=O)c2cc(-c3ccccc3)sc2N)cc(OC)c1OC
  A: -2%; B: 16%; C: 5%; D: -12%; E: 16µM*; F: -3%
> CCOC(=O)c1cccc(NC(=O)CC2C(=O)N(c3ccccc3)C(=O)N2Cc2ccco2)c1 (stereo not given)
  A: -1%; B: 9%; C: 7%; D: 7%; E: -7%; F: nt
> COc1cccc(-c2cnc(NCc3ccccc3Cl)n2C)c1
  A: -26%; B: 6%; C: 4%; D: -2%; E: 28%; F: nt
> COc1cccc(-c2cnc(NCc3cc(Cl)ccc3O)n2C)c1
  A: 28µM*; B: -5%; C: 5%; D: nt; E: ?; F: 3%
> CC(=O)c1ccc(N2CCN(C(=O)C3CCCN(S(=O)(=O)c4ccc(Br)s4)C3)CC2)cc1 (stereo not given)
  A: -12%; B: 16%; C: 3%; D: -8%; E: 16µM*; F: nt
> CCOc1ccc(S(=O)(=O)N2CCCC(C(=O)N3CCN(c4ccccc4)CC3)C2)cc1 (stereo not given)
  A: -3%; B: 18%; C: 0%; D: -18%; E: 23µM*; F: -22%
> CCOc1ccc(OCC(=O)N2CCN(S(=O)(=O)c3ccccc3)CC2)cc1
  A: -3%; B: nt; C: -1%; D: nt; E: nt; F: nt
> CCOc1ccc(S(=O)(=O)N2CCN(C(=O)COc3ccc(Br)cc3)CC2)cc1
  A: -2%; B: nt; C: 4%; D: ?; E: 16µM*; F: -2%
> CC(=O)c1c(C)[nH]c(C(=O)OCC(=O)N2CCN(S(=O)(=O)c3ccc(C)cc3)CC2)c1C
  A: 0%; B: nt; C: 0%; D: -4%; E: 16µM*; F: -5%
> O=C(C1CCCN(S(=O)(=O)c2ccc(Br)s2)C1)N1CCN(c2ccc(F)cc2)CC1 (stereo not given)
  A: -1%; B: -1%; C: 1%; D: -2%; E: ?; F: nt
> Cc1ccc(-n2nc(C)c3nc(CCC(=O)Nc4ccc(F)cc4)c(=O)n(C)c32)cc1
  A: 2%; B: -4%; C: -1%; D: 6%; E: nt; F: nt
> COc1ccc(-c2noc(-c3cc(C(C)C)[nH]n3)n2)cc1
  A: -2%; B: -66%; C: 0%; D: -14%; E: -24%; F: nt
> Cn1nc(C(=O)NCc2ccccc2Cl)c2c1-c1ccccc1SC2
  A: -3%; B: 4%; C: 0%; D: 2%; E: 17%; F: nt
> CC1CCN(C(=O)C2CCCN(S(=O)(=O)c3cccc4nsnc34)C2)CC1 (stereo not given)
  A: 1%; B: 2%; C: 0%; D: -1%; E: -24%; F: -3%

Source: PubChem
